Ab-14 light chain CDR variants: yeast mating affinities

The target is the same throughout: PDVDLGDISGINAS, from the HR2 region of SARS-CoV-2 spike.

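Phage display of a naive human antibody library on the peptide gave the parent. This is the validation round: designs drawn from the data on random variants, tested in the same kind of assay. Several design methods are mixed in this list. Affinity was read by AlphaSeq, a pooled yeast mating assay with surface-displayed partners. Binding brings cells together so that they mate, and sequencing counts the barcode pairs among the diploids. Read counts were normalised to the haploid input and turned into Kd by a linear fit to BCL2-family pairs of known affinity, for each replicate. There are six technical replicates.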

The variants keep the heavy chain, the linker and the frameworks of Ab-14 (scFv order VH, a (GGGGS)3 linker, VL).
VH: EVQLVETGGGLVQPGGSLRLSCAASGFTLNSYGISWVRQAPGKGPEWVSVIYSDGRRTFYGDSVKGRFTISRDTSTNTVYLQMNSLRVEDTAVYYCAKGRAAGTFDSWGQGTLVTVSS
VL: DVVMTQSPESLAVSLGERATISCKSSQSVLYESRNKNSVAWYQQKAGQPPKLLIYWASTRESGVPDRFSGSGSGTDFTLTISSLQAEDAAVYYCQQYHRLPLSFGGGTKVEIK

The parent's light chain CDRs are KSSQSVLYESRNKNSVA, WASTRES, QQYHRLPLS; each variant's own CDRs replace them letter for letter. Affinities are written as log10 Kd with Kd in nM; a lower number is a better binder. Averages over replicates are reported, and they cover detected replicates only. An entry "no signal" has no value in the source: the pair was not observed among the diploids in any replicate. This suggests poor binding but is not conclusive. The parent sequence was in this pool as ten entries: three were never detected, three once, and four in most replicates, with averages from 0.34 to 2.37. In the paper, a design with two or fewer of six values counts as a poor binder. Nonspecific signal, from three strains lacking the peptide, appeared in 4% of pairings of all light chain designs, centred on 2.64 (5% of these signals below 1.59); values are not corrected for it. A sequence measured in both rounds can read differently, since the two assays cover different ranges.

CDR-L1 | CDR-L2 | CDR-L3 | log10 Kd (nM), mean | seen in
KLSQSVLYESRNKNNVA | HASQRES | QQYHRLPLS | -0.10 | 6 of 6
TISGLANYESTNTNSVA | ELTMRGQ | QQYERLPLS | 0.87 | 1 of 6
KLEQSQLYESRNKNNVA | NASTRES | QQYHRLPLS | -0.56 | 6 of 6
NFSQMVLTGSTLKNSVA | HASTREN | QQYHRLPLI | 2.30 | 6 of 6
KWSQSWLYEDRVKNSVA | GASTRES | QQYHRLPLS | -0.21 | 6 of 6
KLSQSDLYESRNKNSVA | NASKRES | QQYHRLPLS | -0.07 | 6 of 6
KSSKSVLYEERNKNSVA | WASTRES | QQYHRLPLS | 1.08 | 6 of 6
MFSQLTYTGSRARNAVA | QAETRLN | QQYHHLPLI | 1.68 | 6 of 6
MISDLTYMGLRNVNSVA | DLSTRGN | QQYDRLPLS | 0.58 | 6 of 6
KLYQSELYESRNKNSVA | NASTRLS | QQYHRLPLS | -0.17 | 6 of 6
KSSQSVLHYSVNKNSVA | KASTRES | QQYHRLPLS | 1.31 | 6 of 6
KQQQGELYMSRNKNSVA | DASQRES | QQYHRLPLS | -0.18 | 6 of 6
KLLQSVLLESRNWNSVA | NASTREL | QQYHRLPLS | -0.18 | 6 of 6
TIGQVMHYDSRNKNSVA | QTSTREE | QDYDRLPLS | 1.02 | 5 of 6
KMEQSVLYESRNKNSVA | GASVRES | QQYHRLPLS | -0.16 | 6 of 6
KLQQQELYESRNKNSVA | SASTREE | QQYHRLPLS | 0.42 | 6 of 6
KLQQSMLYESRWWNSVA | DASVRED | QQYHRLPLS | 0.04 | 6 of 6
KVSQSMLYESRNKNSVA | NASTRMS | QQYHRLPLS | 0.06 | 6 of 6
KLSQSVLYESRNKNSVA | EASTRES | QAYHRLPLS | 0.19 | 6 of 6
KISQMVMYESTWWNAIA | QTSTREE | QQYHRLPLS | 0.73 | 6 of 6
KSSQSVLSESRNKNSVA | WASTRES | QQCHRLPLS | 3.10 | 3 of 6
KIGLVTNGISFSKNNVA | EQSTREN | QQYDRLPLS | 0.81 | 6 of 6
ILSQSMLYESRMKNSVA | NASQRWS | QQYHRLPLS | 0.16 | 6 of 6
KLSQSVPYEERNKAQVA | DASTRMS | QQYHRLPLS | 0.59 | 6 of 6
KFSQSDLYESRNKNSVA | GASQRES | QQYHRLPLS | -0.45 | 6 of 6
HSSPSEEYESRNKNSVA | NASTRES | QQYHRLPLS | 0.27 | 6 of 6
KLSQSVWMLERNKNSVA | NASYRES | QQYHRLPLS | -0.25 | 6 of 6
KSSPSVLYESRNKNSVA | WASTRES | QCYHRLPLS | 1.40 | 1 of 6
KSSNSVLVESTNKNSVA | EASTRER | QQYHRLPLS | 0.82 | 6 of 6
MIHESYGLMSVKQSSIA | DNSTREE | QQYDRLPLS | 0.91 | 6 of 6
TIGQMLMQGIRNRSNVA | EVSQRLN | QQYDRLPLL | 0.94 | 6 of 6
KLSQSELYESRNKNSVA | GASTRES | QQYHRLPLS | 0.01 | 6 of 6
KLDSQYQHGTNQKSAMA | SASVSTQ | QQYSRLPLS | no signal | 0 of 6
RMDMAMPHAHSNINSIA | EGAIQAD | QQYDRLPLS | 1.05 | 6 of 6
KITDKFLTEGNGRQNIA | HGMVALD | QQYQQLPLA | 0.08 | 6 of 6
KLWGRCMDEELINYSVA | NGRLAVQ | QQYDRLPLS | no signal | 0 of 6
KLTSITGTEKVRGQNVA | EMETREN | QQYNRLPLS | 0.08 | 6 of 6
KSVQSVLYESRGKNNVA | WASTRES | QQYHRLPLS | no signal | 0 of 6
KKSQSSLYESRAKNSVA | EASTRES | QQYHRLPLS | 1.44 | 2 of 6
HISPSFMVESKLKNSVA | QTETRVP | QQYDRLPLS | 0.54 | 6 of 6
KSSQSVLDENRYKNSVA | AAKTREQ | QQYHRLPLS | no signal | 0 of 6
KFKAMLNMWARDIHNVA | HADERAV | QQYSRLPLG | 0.50 | 6 of 6
TISGMTNQSASKHNSVA | NVTMRPN | QQYARLPLS | 0.87 | 6 of 6
TIGQVMMYESRNKNSVA | QTSTREE | QDYDRLPLS | 2.31 | 1 of 6
KVSQSVLYESRQKNSVA | NASQRES | QQYHRLPLS | -0.09 | 6 of 6
KVSQWQLYESRMKNAVA | NASTRCD | QQYHRLPLS | 1.22 | 6 of 6
TISMSTYWESRNKNSVA | QTSTREE | QDYDRLPLS | no signal | 0 of 6
KVSQGFLYEQRQKNSVA | NASTRES | QQYHRLPLS | 0.44 | 6 of 6
QIYQAMHTLSQMKDNVA | DVNERGN | QQYFRLPLS | 0.33 | 6 of 6
KSSWSVLYESVNKNGVA | WASTRED | QQYHRLPLS | no signal | 0 of 6
RIQDHMAVGEMRHSSIA | EESTRMD | QQYSRLPLA | 0.44 | 6 of 6
MISQIYNMGQFAINSVA | QASERNN | QQYDRLPLM | 1.51 | 6 of 6
KSGQGVLYESRNKNSVA | GASQRMS | QQYHRLPLS | -0.03 | 6 of 6
KISQMYRYEQQNHSSIA | EANTREE | QSYHRLPLS | 1.21 | 6 of 6
KVSQSWLGESRNKNSVA | EASTRQS | QQYHRLPLS | -0.12 | 6 of 6
HIDTANRGEDMKQDPIA | QADHREQ | QQYFQLPLI | 0.53 | 6 of 6
KQPVLKLYGSRNKNSVA | EASTRES | QQYHRLPLS | 0.58 | 6 of 6
KIGMTLNQMMHKKNNVA | DLVEREM | QQYFRLPLS | 0.52 | 6 of 6
KFSQSVLYESRTQNSVA | NASTRES | QQYHRLPLS | -0.27 | 6 of 6
KWSISYLEESRNKNSVA | EASTRES | QQYHRLPLS | 0.64 | 6 of 6
KLSQVTHSESRNKNNIA | EMVTREV | QQYDRLPLS | 0.65 | 6 of 6
KSSQSVLYESRNKNSVA | WASTRES | QQYHRNPLS | no signal | 0 of 6
KLYASTMLETHDKNSIA | DLSTRGN | QQYHRLPLS | 0.64 | 6 of 6
KSSQSVYAESRNKNSVA | WASTREP | QKYHRLNTS | 2.31 | 6 of 6
KIDQSELGESVNKNSVA | NASTRME | QQYHRLPLS | -0.02 | 6 of 6
HLSQSVLYEMRNKNSVA | NASTRES | QQYHRLPLS | -0.23 | 6 of 6
KISMLINQTFQMANNVA | EMVTREK | QQYNRLPLS | 0.67 | 6 of 6
KSSQSVLYEQRNKNSVA | WASTRES | QQYHRLPLS | no signal | 0 of 6
KSSQSVLYESRNKNSVA | HASTRIS | QQYHRLPLL | 1.20 | 6 of 6
SLREMILDWDNKMGNVA | DMHMREQ | QQYFRLPIM | 0.54 | 6 of 6
KSSQSVLYESDNRNSVA | WASTRES | QQYHRLRLS | 2.17 | 5 of 6
TISDLIMVASRNKNSVA | DESTRPD | QQYHRLPLS | 1.07 | 6 of 6
KLQQSNLYESRNKNSVA | EASTRES | QQYHRLPLS | -0.21 | 6 of 6
KLSFGELMESRNKNSVA | EASCREE | QQYHRLPLS | -0.06 | 6 of 6
KVQQLGCMLSRNKNSVA | HASTRES | QQYHRLPLS | 0.70 | 6 of 6
TISQSAMMESHNKNSVA | DLNLRGS | QQYDRLPLS | 1.36 | 6 of 6
RINIAGMTVDEHYSNVA | AQHLTSE | QQYFRLPLA | 1.22 | 6 of 6

For reference, 10 entries of the list once more:

{"CDR-L1": "RIQDHMAVGEMRHSSIA", "CDR-L2": "EESTRMD", "CDR-L3": "QQYSRLPLA", "log10 Kd (nM), mean": "0.44", "seen in": "6 of 6"}
{"CDR-L1": "KSSQSVLYESDNRNSVA", "CDR-L2": "WASTRES", "CDR-L3": "QQYHRLRLS", "log10 Kd (nM), mean": "2.17", "seen in": "5 of 6"}
{"CDR-L1": "KSSQSVLDENRYKNSVA", "CDR-L2": "AAKTREQ", "CDR-L3": "QQYHRLPLS", "log10 Kd (nM), mean": "no signal", "seen in": "0 of 6"}
{"CDR-L1": "KVSQWQLYESRMKNAVA", "CDR-L2": "NASTRCD", "CDR-L3": "QQYHRLPLS", "log10 Kd (nM), mean": "1.22", "seen in": "6 of 6"}
{"CDR-L1": "KLSQSVLYESRNKNNVA", "CDR-L2": "HASQRES", "CDR-L3": "QQYHRLPLS", "log10 Kd (nM), mean": "-0.10", "seen in": "6 of 6"}
{"CDR-L1": "KISQMVMYESTWWNAIA", "CDR-L2": "QTSTREE", "CDR-L3": "QQYHRLPLS", "log10 Kd (nM), mean": "0.73", "seen in": "6 of 6"}
{"CDR-L1": "KITDKFLTEGNGRQNIA", "CDR-L2": "HGMVALD", "CDR-L3": "QQYQQLPLA", "log10 Kd (nM), mean": "0.08", "seen in": "6 of 6"}
{"CDR-L1": "KLYASTMLETHDKNSIA", "CDR-L2": "DLSTRGN", "CDR-L3": "QQYHRLPLS", "log10 Kd (nM), mean": "0.64", "seen in": "6 of 6"}
{"CDR-L1": "KVQQLGCMLSRNKNSVA", "CDR-L2": "HASTRES", "CDR-L3": "QQYHRLPLS", "log10 Kd (nM), mean": "0.70", "seen in": "6 of 6"}
{"CDR-L1": "MISQIYNMGQFAINSVA", "CDR-L2": "QASERNN", "CDR-L3": "QQYDRLPLM", "log10 Kd (nM), mean": "1.51", "seen in": "6 of 6"}

Data: MIT Lincoln Laboratory AlphaSeq set, Li et al. 2023, doi:10.1038/s41467-023-39022-2, as distributed in FLAb.